Test results published in ChEMBL document CHEMBL6115028, “An Amazing 30-Year Journey around the DABO Family: A Medicinal Chemistry Lesson on a Versatile Class of Non-nucleoside HIV-1 Reverse Transcriptase Inhibitors” (J Med Chem, 2025).

Experiment: Inhibition of wild type HIV-1 LAI reverse transcriptase

Q: For `Cc1cc(C#N)cc(C)c1Oc1nc(Nc2ccc(C#N)cc2)nc(N)c1Br` [ETRAVIRINE], which IC50 is on record?
A: 1.4 nM
